Amino acid sequences for entries named in this document (tags omitted).
UniProt Q06187, whole entry, species assumed: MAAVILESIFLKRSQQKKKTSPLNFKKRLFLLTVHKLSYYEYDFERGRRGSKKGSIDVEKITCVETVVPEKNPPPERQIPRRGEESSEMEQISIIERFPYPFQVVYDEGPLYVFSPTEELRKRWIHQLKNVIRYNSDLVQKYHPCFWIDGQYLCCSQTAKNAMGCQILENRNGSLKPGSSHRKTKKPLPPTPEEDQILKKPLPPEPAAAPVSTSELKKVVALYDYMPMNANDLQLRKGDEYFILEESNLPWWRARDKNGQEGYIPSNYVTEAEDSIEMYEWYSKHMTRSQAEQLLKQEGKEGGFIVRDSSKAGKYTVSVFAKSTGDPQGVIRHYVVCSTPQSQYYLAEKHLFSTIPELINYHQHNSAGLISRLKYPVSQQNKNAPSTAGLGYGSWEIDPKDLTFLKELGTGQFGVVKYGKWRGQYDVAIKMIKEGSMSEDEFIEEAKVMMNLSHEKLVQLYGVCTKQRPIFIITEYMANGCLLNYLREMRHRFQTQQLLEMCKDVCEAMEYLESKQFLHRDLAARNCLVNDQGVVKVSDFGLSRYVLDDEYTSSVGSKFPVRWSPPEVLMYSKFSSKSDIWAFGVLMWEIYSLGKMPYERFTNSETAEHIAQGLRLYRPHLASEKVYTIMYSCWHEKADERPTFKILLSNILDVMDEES

In patent US20230158156A1, “BIFUNCTIONAL MOLECULES AND METHODS OF USING THEREOF” (Flagship Pioneering, Inc., priority 2020, published 2023):

Target: purified BTK protein and Cy5-labeled IVT RNA (Homo sapiens, UniProt Q06187)
Assay: In vitro ternary complex formation assay (PAGE gel shift)
Format: binding
Conditions: 10 pmol ASOi, PBS, room temperature 90 minutes; for supershift of BTK protein band in the presence of Cy5-IVT RNA (ternary complex formation): 2 pmol BTK protein, 20 pmol Cy5-labeled IVT RNA
Description: A ternary complex is a complex containing three different molecules bound together. […] An inhibitor-conjugated antisense oligonucleotide (hereafter referred to as ASOi) (i.e., EGFR ASO conjugated to Ibrutinib-MPEA) was mixed with the protein target of the inhibitor (i.e., BTK) and the RNA target of the ASO (i.e., EGFR RNA), and allowed to react with the protein and hybridize with the RNA target to form a ternary complex including all 3 molecules. The same is also performed with MALATI targeting ASO with the sequence 5′CGUUAACUAGGCUUUA3′ (SEQ ID NO: 1) conjugated at the 5′ end with Ibrutinib (BTK inhibitor; BTKi) and the RNA target of the ASO (i.e., MALATI RNA) as shown in FIG. 2A. FIG. 2B depicts the gel analysis results detecting the formation of the ternary complex, binding of the ASOi to the target protein caused the protein to migrate higher (shift up) on a polyacrylamide gel because of its increased molecular weight. […] Furthermore, labeling the target RNA with a fluorescent dye allowed direct visualization of the target RNA in the supershifted protein complex.
In one reaction (#1), 10 pmol of the MALATI targeting ASO (hereafter called N33-ASOi) conjugated at the 5′ end with Ibrutinib was mixed in PBS with 2 pmol purified BTK protein, 200 pmol yeast rRNA (as non-specific blocker) and 20 pmol Cy5-labeled IVT RNA of the following sequence:
All reactions were incubated at room temperature for 90 minutes protected from light, then mixed with a loading buffer containing 0.5% SDS final and 10% glycerol final, and complexes separated by PAGE on a Bis-Tris 4-12% gel including an IRDye700 pre-stained protein molecular weight marker (LiCor). Immediately following electrophoresis, the gel was imaged using a LiCor Odyssey system with the 700 nm channel to identify the position of Cy5-IVT-RNA bands and MW marker. Next, proteins in the gel were stained using InstantBlue colloidal Coomassie stain (Expedeon) and re-imaged using transmitted light. […]

Row | Substance | supershift of BTK protein band in the presence of Cy5-IVT RNA (ternary complex formation) | increase in MW of the BTK protein band (binary complex formation) (2 pmol purified BTK protein, Coomassie stain)
1 | N33-ASOi: MALATI targeting ASO 5′CGUUAACUAGGCUUUA3′ (SEQ ID NO: 1) conjugated at the 5′ end with Ibrutinib (antisense cguuaacuaggcuuua; 5' Ibrutinib conjugate; antisense oligonucleotide (ASO)) | observed with N33-ASOi | increase in MW of the BTK protein band
2 | SCR-ASOi: non-complementary RNA oligo 5′AGAGGUGGCGUGGUAG3′ (SEQ ID NO:21) conjugated at the 5′ end with Ibrutinib (agagguggcgugguag; 5' Ibrutinib conjugate; SCR-ASOi) [reference compound] | not with SCR-ASOi | –
